Literature values as cited in paper PMC10559049 (Heliyon, 2023).

Tested on: sEH
Settings: cited from earlier work

O=C(O)CCCCCCCCCCCNC(=O)NC12CC3CC(CC(C3)C1)C2 [AUDA, 12-(3-adamantane-1-yl-ureido)-dodecanoic acid]
sEH inhibitory effects: inhibitory effects at nanomolar concentrations
